# Test results: patent US7786093B2, “Antistress agent” (Health Wellness Foods Corporation, priority 2004, dated 2010)
# Legend:
# [1] = test system: spleen cells of BALB/c mice; assay: Preliminary test: cytokine productivity of spleen cells from DEX-administered mice (ELISA); format: in vivo; conditions: DEX 60 μg/mouse i.p., spleen cells 24 h after vs before DEX
# Procedure: Before verifying the effect of nigerooligosaccharide, as a preliminary test in order to identify the decrease in cytokine productivity due to DEX, DEX (60 μg/mouse) was intraperitoneally administered to 14 weeks old, female BALB/c mice. Before and 24 hours after the administration of DEX, the spleen was excised from the BALB/c mice, and spleen cells were prepared by a conventional method. The prepared spleen cells were suspended in an RPMI 1640 culture medium so as to make a concentration of 5.0×10^6 cells/mL. This suspension was inoculated in 100 μL per one well on a 96-well tissue culture plate, and further a solution of a cell stimulatory factor, (1) PHA or (2) LPS, dissolved in the RPMI 1640 culture medium so as to make a final concentration of 12.5 μg/mL or 20 μg/mL, respectively, was added in 100 μL per one well. The spleen cells were cultivated at 37° C. for 24 hours in a 5% CO2 incubator, and the concentrations of cytokines in the culture supernatant, IL-4 and IFN-γ for the foregoing (1) or IL-10 and TNF-α for the foregoing (2), were measured by the ELISA. The amount of IFN-γ was measured on the basis of the ELISA described in Example 2. The amounts of IL-4, IL-10 and TNF-α were measured in a manner similar to the ELISA described in Example 2, except that the IFN-γ in the ELISA described in Example 2 was replaced by IL-4, IL-10 or TNF-α.
# Hereupon, the cytokine production ratio (%) in the DEX-administered mice was calculated by the following equation: Cytokine production ratio (%)=(A/B)×100
# A: The cytokine concentration in the culture supernatant of the cells of spleen excised 24 hours after the intraperitoneal administration of DEX
# B: The cytokine concentration in the culture supernatant of the cells of spleen excised before the intraperitoneal administration of DEX
# human mononuclear cells = assay: IL-12 and IFN-γ production by mononuclear cells stimulated with heat-killed Lactobacillus plantarum L137, with DEX (ELISA); format: cell-based; conditions: DEX 10 nM, nigerose 0 μg/mL, Lactobacillus plantarum L137 1.0 μg/mL, 24 h
# Procedure: A 2 μg/mL solution of a mouse anti-human IFN-γ antibody (manufactured by Endogen Inc.) prepared in a borate buffer solution was added in 50 μL per one well on a 96-well ELISA plate, and the plate was allowed to stand at 4° C. for a day to adhere the mouse anti-human IFN-γ antibody to each well. The above-mentioned culture supernatant was added in 50 μL per one well on the ELISA plate adhering the mouse anti-human IFN-γ antibody, and the plate was allowed to stand at room temperature for 90 minutes, thereby binding the IFN-γ in the culture supernatant to the mouse anti-human IFN-γ antibody adhered on the plate. […] The absorbance at a measurement wavelength of 492 nm and a reference wavelength of 630 nm was measured, and the concentration of the IFN-γ in the culture supernatant was obtained from a calibration curve prepared with a recombinant IFN-γ.
# To the culture was added a cell stimulatory factor, which was heated dead body cells of Lactobacillus plantarum L137, so as to make a final concentration of […]. […] After completion of the incubation, the amounts of IL-12 and IFN-γ in the culture supernatant were measured by the ELISA.
compound,measurement,setting,value
"C[C@@H]1C[C@H]2[C@@H]3CCC4=CC(=O)C=C[C@]4(C)[C@@]3(F)[C@@H](O)C[C@]2(C)[C@@]1(O)C(=O)CO [DEX, Dexamethasone]","Cytokine production ratio (%) in DEX-administered mice, IL-10",[1]; LPS 20 μg/mL,56.8%
same,"Cytokine production ratio (%) in DEX-administered mice, TNF-α",[1]; LPS 20 μg/mL,64.7%
same,"Cytokine production ratio (%) in DEX-administered mice, IFN-γ",[1]; PHA 12.5 μg/mL,51.7%
same,"Cytokine production ratio (%) in DEX-administered mice, IL-4",[1]; PHA 12.5 μg/mL,65.8%
same,IL-12,human mononuclear cells,0.121 ± 0.046 ng/mL
